To fix the notation:
B1: bH1 Fab HG99R (Fab, V domains shown)
VH: not shown
VL: DIQMTQSPSSLSASVGDRVTITCRASQDIPRSISGYVAWYQQKPGKAPKLLIYWGSYLYSGVPSRFSGSGSGTDFTLTISSLQPEDFATYYCQQHYTTPPTFGQGTKVEIK
notes: as the heavy chain of m4 with the stated change; numbers count on: Bostrom et al. [8]; as the light chain of m4; source: CHO-3E7, co-transfected, His-tag purified
B2: bH1 Fab HY33W (Fab, V domains shown)
VH: not shown
VL: DIQMTQSPSSLSASVGDRVTITCRASQDIPRSISGYVAWYQQKPGKAPKLLIYWGSYLYSGVPSRFSGSGSGTDFTLTISSLQPEDFATYYCQQHYTTPPTFGQGTKVEIK
notes: as for B1
B3: bH1 Fab HG99M (Fab, V domains shown)
VH: not shown
VL: DIQMTQSPSSLSASVGDRVTITCRASQDIPRSISGYVAWYQQKPGKAPKLLIYWGSYLYSGVPSRFSGSGSGTDFTLTISSLQPEDFATYYCQQHYTTPPTFGQGTKVEIK
notes: as for B1
B4: bH1 Fab HD98F (Fab, V domains shown)
VH: not shown
VL: DIQMTQSPSSLSASVGDRVTITCRASQDIPRSISGYVAWYQQKPGKAPKLLIYWGSYLYSGVPSRFSGSGSGTDFTLTISSLQPEDFATYYCQQHYTTPPTFGQGTKVEIK
notes: as for B1
B5: bH1 Fab HD98W (Fab, V domains shown)
VH: not shown
VL: DIQMTQSPSSLSASVGDRVTITCRASQDIPRSISGYVAWYQQKPGKAPKLLIYWGSYLYSGVPSRFSGSGSGTDFTLTISSLQPEDFATYYCQQHYTTPPTFGQGTKVEIK
notes: as for B1
B6: bH1 Fab HD98M (Fab, V domains shown)
VH: not shown
VL: DIQMTQSPSSLSASVGDRVTITCRASQDIPRSISGYVAWYQQKPGKAPKLLIYWGSYLYSGVPSRFSGSGSGTDFTLTISSLQPEDFATYYCQQHYTTPPTFGQGTKVEIK
notes: as for B1
B7: bH1 Fab HG99D (Fab, V domains shown)
VH: not shown
VL: DIQMTQSPSSLSASVGDRVTITCRASQDIPRSISGYVAWYQQKPGKAPKLLIYWGSYLYSGVPSRFSGSGSGTDFTLTISSLQPEDFATYYCQQHYTTPPTFGQGTKVEIK
notes: as for B1

Sequences of proteins named here, by UniProt entry; tags and fusion partners are left off.
UniProt P15692, whole entry, looked up, stated change not applied: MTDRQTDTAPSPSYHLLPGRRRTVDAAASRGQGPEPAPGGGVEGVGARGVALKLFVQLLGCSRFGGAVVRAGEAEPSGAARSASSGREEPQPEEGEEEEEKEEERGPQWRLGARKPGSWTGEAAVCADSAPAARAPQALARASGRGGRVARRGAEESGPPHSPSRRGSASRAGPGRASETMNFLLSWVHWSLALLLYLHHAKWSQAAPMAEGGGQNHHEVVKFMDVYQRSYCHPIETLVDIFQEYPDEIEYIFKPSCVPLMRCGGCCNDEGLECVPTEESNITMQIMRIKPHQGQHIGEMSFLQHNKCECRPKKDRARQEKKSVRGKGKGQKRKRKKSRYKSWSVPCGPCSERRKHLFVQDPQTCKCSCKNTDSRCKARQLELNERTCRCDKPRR

In this test the target is T1, Full-length isoform 165 of human VEGF-A (Homo sapiens, UniProt P15692-4, strain).
T1 construct: human vascular endothelial growth factor A, 165 amino acid isoform (VEGF165); also called VEGF165
Description: SPR; BioRad ProteOn XPR36; HER2 or VEGF amine-coupled to a GLC chip (about 150 RU); Fab as analyte, 3-fold dilutions from 30, 60 or 120 nM; 25C; PBS, 0.05% Tween 20, 3.4 mM EDTA; 1:1 binding model, KD from koff/kon. To be noted: both partners purified. A general note: Surface plasmon resonance follows binding to a sensor surface in real time, without labels.
B1: the binding result was “binds”. Then B2, with “binds”. Then B3, with “binds”; and B4, with “binds”. Then B5, with “binds”; and B6, with “binds”; and B7, with “binds”.

(Values after publication PMC5531539 (PLoS ONE, 2017).)
